# Data: patent US8388990B2, “Acidified chlorite compositions containing nitrogenous stabilizers and systems and methods related thereto” (Ecolab USA Inc., priority 2002, dated 2013)
# Test: Effect of nitrogenous stabilizer on chlorite consumption in composition with FD&C Yellow #5 (Examples 3, 4, 8)
# Details: composition with FD&C Yellow #5, pH 2.5, versus control
smiles,measurement,value
OCCN(CCO)CCO,effect on rate of sodium chlorite consumption / chlorite longevity (in words),accelerate the rate of sodium chlorite consumption
